These are literature values, as cited in US20190144909A1, “METHODS OF MODULATING BCKDH” (NESTEC S.A., priority 2016, published 2019).

SMILES strings stand for the structures. Some compounds may have been tested in ways that are not shown here.

For data set [1], the system named is branched-chain alpha-keto acid dehydrogenase E1 B subunit (BCKDHB). To be noted: Table 1a, from Comparative Toxicogenomics Database.
The subject of data set [2] is branched-chain alpha-keto acid dehydrogenase E1 A subunit (BCKDHA). To be noted: Table 1b, from Comparative Toxicogenomics Database.

Consider `Cc1ccc([N+](=O)[O-])cc1[N+](=O)[O-]`, for which the “Interaction Actions” value in data set [1] and in data set [2] was “affects expression” throughout.
